Laboratory results taken from patent publication US10011599B2 (priority 2013, dated 2018).

Tested on: A375 cells
Experiment: cells
Details: Homo sapiens, A-375, 72 h, read-out: A375 XTT IC50 uM

Structure (SMILES)	IC50 [µM]
Cc1nc2cnc3cc(F)c(-c4ccc(Oc5ncccn5)cc4Cl)cc3c2n1C1CCN(S(C)(=O)=O)CC1 [Example 5, 8-(2-chloro-4-(pyrimidin-2-yloxy)phenyl)-7-fluoro-2-methyl-1-(1-(methylsulfonyl)piperidin-4-yl)-1H-imidazo[4,5-c]quinoline]	0.321
Cc1nc2cnc3cc(F)c(-c4ccc(Oc5ncccn5)cc4Cl)cc3c2n1C1CCN(C(=O)C(C)O)CC1 (stereo not drawn) [Example 6, 1-(4-(8-(2-chloro-4-(pyrimidin-2-yloxy)phenyl)-7-fluoro-2-methyl-1H-imidazo[4,5-c]quinolin-1-yl)piperidin-1-yl)-2-hydroxypropan-1-one]	0.232
Cc1nc2cnc3cc(F)c(-c4ccc(Oc5ncccn5)cc4Cl)cc3c2n1C1CCN(S(=O)(=O)C2CC2)CC1 [Example 8, 8-(2-chloro-4-(pyrimidin-2-yloxy)phenyl)-1-(1-(cyclopropylsulfonyl)piperidin-4-yl)-7-fluoro-2-methyl-1H-imidazo[4,5-c]quinoline]	0.319
Cc1nc2cnc3cc(F)c(-c4ccc(Oc5ncccn5)cc4Cl)cc3c2n1C1CCN(S(=O)(=O)C(C)C)CC1 [Example 9, 8-(2-chloro-4-(pyrimidin-2-yloxy)phenyl)-7-fluoro-1-(1-(isopropylsulfonyl)piperidin-4-yl)-2-methyl-1H-imidazo[4,5-c]quinoline]	0.755
Cc1nc2cnc3cc(F)c(-c4ccc(Oc5ncccn5)cc4Cl)cc3c2n1C1CCN(S(=O)(=O)N(C)C)CC1 [Example 10, 4-(8-(2-chloro-4-(pyrimidin-2-yloxy)phenyl)-7-fluoro-2-methyl-1H-imidazo[4,5-c]quinolin-1-yl)-N,N-dimethylpiperidine-1-sulfonamide]	2.09
Cc1nc2cnc3cc(F)c(-c4ccc(Oc5ncccn5)cc4Cl)cc3c2n1C1CCN(C(=O)N(C)C)CC1 [Example 11, 4-(8-(2-chloro-4-(pyrimidin-2-yloxy)phenyl)-7-fluoro-2-methyl-1H-imidazo[4,5-c]quinolin-1-yl)-N,N-dimethylpiperidine-1-carboxamide]	6.55
CC(=O)N1CCC(n2c(C)nc3cnc4cc(F)c(-c5ccc(Oc6ncccn6)cc5Cl)cc4c32)CC1 [Example 12, 1-(4-(8-(2-chloro-4-(pyrimidin-2-yloxy)phenyl)-7-fluoro-2-methyl-1H-imidazo[4,5-c]quinolin-1-yl)piperidin-1-yl)ethanone]	0.414
Cc1nc2cnc3cc(F)c(-c4ccc(Oc5ncccn5)cc4Cl)cc3c2n1C1CCN(C(=O)CO)CC1 [Example 14, 1-(4-(8-(2-chloro-4-(pyrimidin-2-yloxy)phenyl)-7-fluoro-2-methyl-1H-imidazo[4,5-c]quinolin-1-yl)piperidin-1-yl)-2-hydroxyethanone]	0.076
Cc1nc2cnc3cc(F)c(-c4ccc(Oc5ncccn5)cc4Cl)cc3c2n1C1CCN(C(=O)C(CO)CO)CC1 [Example 22, 1-(4-(8-(2-chloro-4-(pyrimidin-2-yloxy)phenyl)-7-fluoro-2-methyl-1H-imidazo[4,5-c]quinolin-1-yl)piperidin-1-yl)-3-hydroxy-2-(hydroxymethyl)propan-1-one]	> 10
Cc1ccnc(Oc2ccc(-c3cc4c(cc3F)ncc3nc(C)n(C5CCN(C(=O)CO)CC5)c34)c(Cl)c2)n1 [Example 28, 1-(4-(8-(2-chloro-4-((4-methylpyrimidin-2-yl)oxy)phenyl)-7-fluoro-2-methyl-1H-imidazo[4,5-c]quinolin-1-yl)piperidin-1-yl)-2-hydroxyethanone]	0.0048
Cc1nc2cnc3cc(F)c(-c4ccc(Oc5ncccn5)cc4Cl)cc3c2n1C1CCN(C(N)=O)CC1 [Example 30]	0.014
Cc1nc2cnc3cc(F)c(-c4ccc(Oc5ncccn5)cc4Cl)cc3c2n1C1CCN(C(=O)[C@H](C)O)CC1 [Example 34, (S)-1-(4-(8-(2-chloro-4-(pyrimidin-2-yloxy)phenyl)-7-fluoro-2-methyl-1H-imidazo[4,5-c]quinolin-1-yl)piperidin-1-yl)-2-hydroxypropan-1-one]	0.212
COCC(=O)N1CCC(n2c(C)nc3cnc4cc(F)c(-c5ccc(Oc6ncccn6)cc5Cl)cc4c32)CC1 [Example 42, 1-(4-(8-(2-chloro-4-(pyrimidin-2-yloxy)phenyl)-7-fluoro-2-methyl-1H-imidazo[4,5-c]quinolin-1-yl)piperidin-1-yl)-2-methoxyethanone]	0.208
Cc1nc2cnc3cc(F)c(-c4ccc(Oc5ncccn5)cc4Cl)cc3c2n1C1CCN(C(=O)NCC(F)(F)F)CC1 [Example 45, 4-(8-(2-chloro-4-(pyrimidin-2-yloxy)phenyl)-7-fluoro-2-methyl-1H-imidazo[4,5-c]quinolin-1-yl)-N-(2,2,2-trifluoroethyl)piperidine-1-carboxamide]	4.27
CC(=O)OCC(=O)N1CC[C@H](n2c(C)nc3cnc4cc(F)c(-c5ccc(Oc6ncccn6)cc5Cl)cc4c32)[C@@H](F)C1 [Example 49, 2-((3S,4S)-4-(8-(2-chloro-4-(pyrimidin-2-yloxy)phenyl)-7-fluoro-2-methyl-1H-imidazo[4,5-c]quinolin-1-yl)-3-fluoropiperidin-1-yl)-2-oxoethyl acetate]	0.034
Cc1nc2cnc3cc(F)c(-c4ccc(Oc5ncccn5)cc4Cl)cc3c2n1[C@H]1CCN(S(C)(=O)=O)C[C@@H]1F [Example 50, 8-(2-chloro-4-(pyrimidin-2-yloxy)phenyl)-7-fluoro-1-((3S,4S)-3-fluoro-1-(methylsulfonyl)piperidin-4-yl)-2-methyl-1H-imidazo[4,5-c]quinoline]	0.067
Cc1nc2cnc3cc(F)c(-c4ccc(Oc5nccc(C(F)(F)F)n5)cc4Cl)cc3c2n1[C@H]1CCN(C(=O)CO)C[C@@H]1F [Example 51, 1-((3S,4S)-4-(8-(2-chloro-4-((4-(trifluoromethyl)pyrimidin-2-yl)oxy)phenyl)-7-fluoro-2-methyl-1H-imidazo[4,5-c]quinolin-1-yl)-3-fluoropiperidin-1-yl)-2-hydroxyethanone]	0.004
COCC(=O)N1CC[C@H](n2c(C)nc3cnc4cc(F)c(-c5ccc(Oc6ncccn6)cc5Cl)cc4c32)[C@@H](F)C1 [Example 52, 1-((3S,4S)-4-(8-(2-chloro-4-(pyrimidin-2-yloxy)phenyl)-7-fluoro-2-methyl-1H-imidazo[4,5-c]quinolin-1-yl)-3-fluoropiperidin-1-yl)-2-methoxyethanone]	0.159
Cc1nc(Oc2ccc(-c3cc4c(cc3F)ncc3nc(C)n([C@H]5CCN(C(=O)CO)C[C@@H]5F)c34)c(Cl)c2)ncc1F [Example 53, 1-((3S,4S)-4-(8-(2-chloro-4-((5-fluoro-4-methylpyrimidin-2-yl)oxy)phenyl)-7-fluoro-2-methyl-1H-imidazo[4,5-c]quinolin-1-yl)-3-fluoropiperidin-1-yl)-2-hydroxyethanone]	0.012
Cc1nc2cnc3cc(F)c(-c4ccc(Oc5ncccn5)cc4Cl)cc3c2n1C1CCS(=O)(=O)CC1 [Example 55, 4-(8-(2-chloro-4-((4-methylpyrimidin-2-yl)oxy)phenyl)-7-fluoro-2-methyl-1H-imidazo[4,5-c]quinolin-1-yl)tetrahydro-2H-thiopyran 1,1-dioxide]	0.319
COCC(=O)N1CCC(n2c(C)nc3cnc4cc(F)c(-c5ccc(Oc6nccc(C)n6)cc5Cl)cc4c32)CC1 [Example 67, 1-(4-(8-(2-chloro-4-((4-methylpyrimidin-2-yl)oxy)phenyl)-7-fluoro-2-methyl-1H-imidazo[4,5-c]quinolin-1-yl)piperidin-1-yl)-2-methoxyethanone]	0.281
